Drawing on PubChem BioAssay AID624256 (NMMLSC, 2012), this text covers normalized GFP-positive differentiation for 36 compounds.

The entries are a selection whose mix differs from that of the whole data set. Active and inactive are the calls of the source.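 Rule for the calls: active = normalized GFP-positive differentiation at or above the plate's own cutoff, the solvent-only control mean plus 3 SD; inconclusive = no clear call, values can overlap the other calls; inactive = the rest.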

A short description of the assay: HoxA9-arrested leukemia cell differentiation promoters – flow cytometry, MLPCN library, primary screen (AID 624256). The settings on record: ER-HoxA9 myeloid progenitors, lysozyme-GFP differentiation, at 10 µM. For orientation: In flow cytometry, cells or beads pass a laser one at a time.
In the case of `O=C(NCC1(N2CCCCC2)CCCCC1)c1ccc(OC(F)F)cc1`, the normalized GFP-positive differentiation result was “inactive”.

As for `CC(C)(C)n1nnnc1C(c1ccccc1OC(F)(F)F)N1CCC(n2c(=O)[nH]c3ccccc32)CC1` (stereo unspecified), the normalized GFP-positive differentiation entry is “inactive”.

Regarding `COc1cc(C(=O)NCC2(N(C)C)CCCCC2)ccc1OC(F)F`, the normalized GFP-positive differentiation result was “inactive”.

On to `CCOC(=O)N1CCC(Nc2cccc(C)c2)CC1`, for which the normalized GFP-positive differentiation result is “inactive”.

In the case of `O=c1[nH]c2ccccc2n1C1CCN(C(c2cccc3ccccc23)c2nnnn2C2CCCC2)CC1` (stereo unspecified), the normalized GFP-positive differentiation result was “inactive”.

On to `O=c1[nH]c2ccccc2n1C1CCN(C(c2ccccc2)c2nnnn2C2CCCCC2)CC1` (stereo unspecified), for which the normalized GFP-positive differentiation entry was “inactive”.

For the compound `COc1ccc(NC2CCN(CCc3ccccc3)CC2)c(OC)c1`, the normalized GFP-positive differentiation result is “inactive”.

With `CCOC(=O)N1CCC(Nc2ccc(F)cc2)CC1`, the normalized GFP-positive differentiation entry was “inactive”.

As for `O=C(NCC1(N2CCCCC2)CCCCC1)c1ccc(F)cc1`, the normalized GFP-positive differentiation result is “inactive”.

With `O=P1(N(CCCl)CCCl)SCCCS1`, the normalized GFP-positive differentiation result was “inactive”.

`CCCCn1nnnc1C(c1cc2ccccc2o1)N1CCC(n2c(=O)[nH]c3ccccc32)CC1` (stereo unspecified): the normalized GFP-positive differentiation result is “inactive”.

For `CCCCOc1ccc(C(=O)NCC2(N3CCOCC3)CCCCC2)cc1`, the normalized GFP-positive differentiation result is “inactive”.

With `O=C1CCN(Cc2ccccc2)CC1`, the normalized GFP-positive differentiation result is “inactive”.

As for `CC(C)(C)n1nnnc1C(c1ccccc1)N1CCC(n2c(=O)[nH]c3ccccc32)CC1` (stereo unspecified), the normalized GFP-positive differentiation result is “inactive”.

As to `CCOc1ccc(C)cc1CN(CCCl)CCCl`, the normalized GFP-positive differentiation result was “inactive”.

As to `COc1ccc(Cl)cc1C(=O)NCC1(N2CCOCC2)CCCCC1`, the normalized GFP-positive differentiation result was “inactive”.

As for `O=C(OC1CN2CCC1CC2)C1c2ccccc2Oc2ccccc21` (stereo unspecified), the normalized GFP-positive differentiation result is “inactive”.

As for `O=c1[nH]c2ccccc2n1C1CCN(C(c2cc3ccccc3o2)c2nnnn2C2CCCCC2)CC1` (stereo unspecified), the normalized GFP-positive differentiation result was “inactive”.

`N#CC1(Nc2ccccc2)CCN(Cc2ccccc2)CC1`: the normalized GFP-positive differentiation result is “inactive”.

As for `O=C(NCC1(N2CCCCC2)CCCCC1)c1ccc(Cl)s1`, the normalized GFP-positive differentiation result was “inactive”.

Consider `CCCCn1nnnc1C(c1ccc(OC)cc1)N1CCC(n2c(=O)[nH]c3ccccc32)CC1` (stereo unspecified), for which the normalized GFP-positive differentiation entry was “inactive”.

As for `CCOC(=O)N1CCC(Nc2ccc(OC)cc2)CC1`, the normalized GFP-positive differentiation result was “inactive”.

Regarding `Cc1cc(C)cc(N(C(=O)c2ccccc2)C2CCN(C(=O)OC(C)(C)C)CC2)c1`, the normalized GFP-positive differentiation result was “inactive”.

In the case of `O=c1[nH]c2ccccc2n1C1CCN(C(c2ccccc2OC(F)(F)F)c2nnnn2C2CCCCC2)CC1` (stereo unspecified), the normalized GFP-positive differentiation entry was “inactive”.

`O=C(NCC1(N2CCCCC2)CCCCC1)c1ccc(Cl)nc1`: the normalized GFP-positive differentiation result is “inactive”.

With `O=C(NCC1(N2CCOCC2)CCCCC1)c1cc2ccccc2o1`, the normalized GFP-positive differentiation result is “inactive”.

For `Cc1cccc(NC2(C#N)CCN(Cc3ccccc3)CC2)c1`, the normalized GFP-positive differentiation entry is “inactive”.

With `CSc1ccccc1C(=O)NCC1(N2CCCCC2)CCCCC1`, the normalized GFP-positive differentiation result was “inactive”.

As to `CCC(c1nnnn1C1CCCC1)N1CCC(n2c(=O)[nH]c3ccccc32)CC1` (stereo unspecified), the normalized GFP-positive differentiation result was “inactive”.

As for `COc1ccc(C(=O)NCC2(N3CCCCC3)CCCCC2)c(OC)c1OC`, the normalized GFP-positive differentiation entry was “inactive”.

Take `CC(C)(C)OC(=O)N1CCC(N(C(=O)c2ccccc2)c2ccc(F)cc2)CC1`: the normalized GFP-positive differentiation result is “inactive”.

As for `COc1ccc(C(=O)NCC2(N3CCCCC3)CCCCC2)cc1`, the normalized GFP-positive differentiation entry is “inactive”.

Consider `CCCCn1nnnc1C(c1cccs1)N1CCC(n2c(=O)[nH]c3ccccc32)CC1` (stereo unspecified), for which the normalized GFP-positive differentiation result is “inactive”.

For `CCCCn1nnnc1C(CC)N1CCC(n2c(=O)[nH]c3ccccc32)CC1` (stereo unspecified), the normalized GFP-positive differentiation entry is “inactive”.

With `O=C(NCC1(N2CCCCC2)CCCCC1)c1cccs1`, the normalized GFP-positive differentiation entry was “inactive”.

As to `O=C(NCC1(N2CCCCC2)CCCCC1)c1ccc(=O)[nH]c1`, the normalized GFP-positive differentiation entry is “inactive”.
